System: patients with IBC (inflammatory breast cancer)
Experiment: EGF103009 open-label study of lapatinib monotherapy: clinical response (skin criteria / RECIST) and progression-free survival
Assay type: in vivo, human
Conditions: cohort A responders

CS(=O)(=O)CCNCc1ccc(-c2ccc3ncnc(Nc4ccc(OCc5cccc(F)c5)c(Cl)c4)c3c2)o1 [lapatinib, Lapatinib ditosylate] was tested, and the “Median duration of overall response (skin and RECIST)” value was 16.9 weeks.

Source: US20100173918A1, “METHODS AND COMPOSITIONS FOR DETERMINING THE EFFICACY OF BREAST CANCER THERAPEUTICS” (TARGETED MOLECULAR DIAGNOSTICS, LLC, priority 2007, published 2010)
